The numbers were not newly measured in patent US20250248951A1, “[…] PREPARATION AND USE THEREOF” (YICHANG HUMANWELL PHARMACEUTICAL CO., LTD., priority 2022, published 2025), which cites them from elsewhere.

The data set has as its system 5-HT.

For the molecule `CN[C@]1(c2ccccc2Cl)CCCCC1=O.Cl` [D-ketamine, (S)-2-(2-chlorophenyl)-2-(methylamino) cyclohexanone hydrochloride], the “inhibitory effect on 5-HT, % of L-ketamine” value is recorded as 50%.
